Molecular target: human growth hormone secretagogue receptor (GHS-R1a) (human) (UniProt Q92847)
Assay: cell-based or functional assay

Protein sequences, listed by entry. Tags and fused reporters are not part of them.
UniProt Q92847, whole entry: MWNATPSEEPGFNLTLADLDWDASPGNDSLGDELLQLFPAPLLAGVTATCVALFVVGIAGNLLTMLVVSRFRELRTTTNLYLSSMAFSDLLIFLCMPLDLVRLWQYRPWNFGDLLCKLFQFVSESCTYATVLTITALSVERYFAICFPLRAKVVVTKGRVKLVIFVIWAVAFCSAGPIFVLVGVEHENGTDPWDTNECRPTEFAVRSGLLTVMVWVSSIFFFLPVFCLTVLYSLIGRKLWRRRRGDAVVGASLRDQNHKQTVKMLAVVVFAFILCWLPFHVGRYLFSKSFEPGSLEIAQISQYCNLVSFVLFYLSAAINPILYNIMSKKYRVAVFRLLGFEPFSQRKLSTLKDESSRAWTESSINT

calcium release (fluo-4 fluorescence) in CHO cells expressing human GHS-R1a: 300 nM | effect on octanoyl-ghrelin-induced calcium release in CHO cells expressing human GHS-R1a: 300 nM
Substance: desoctanoyl-ghrelin (peptide)

Reference: patent US8101734
